The record followed here is US11331368B2, “Angiotensin receptor agonists and uses thereof” (Monash University, priority 2017, dated 2022).

The target in one series is T1, human AT1R (Homo sapiens, UniProt P30556).
T1 construct: expressed in transfected cells
The series is described as follows: Competition radioligand binding (125I-Sar1-Ile8-AngII) in AT1R-transfected HEK-293 cells. As to conditions: read-out: Binding AT1R IC50.

Series [1] in a line: In vitro plasma stability assay (rat plasma). In kind it is in vitro ADME. Particulars: for Plasma stability (t1/2): plasma from male spontaneously hypertensive rats (SHR). The method, then: Proteolytic stability may be tested in a plasma stability assay used to assess the susceptibility of a peptide described herein to plasma proteases. Plasma stability may be tested using methods described herein. For example, a sample of rat plasma may be incubated with peptide of interest (final concentration was 1 mg/mL; plasma diluted by 10% with peptide dissolved in saline). Protease activity is then quenched in samples by the addition of acetonitrile, at selected time intervals. The amount of parent compound remaining at each time point can then be assayed on an Agilent 1100 MSD SL ion trap mass spectrometer. The peaks observed in the resulting chromatograms are integrated, compared to a standard curve, and cross-checked by mass and retention time (Jones et al 2011 Hypertension. 57: 570-576).
B) Proteolytic stability was tested in a plasma stability assay used to assess the susceptibility of Ang II peptides to plasma proteases. A sample of rat plasma was incubated with peptide of interest (final concentration was 1 mg/mL; plasma diluted by 10% with peptide dissolved in saline). Protease activity was quenched in samples by the addition of acetonitrile, at selected time intervals. The amount of parent compound remaining at each time point was then assayed on an Agilent 1100 MSD SL ion trap mass spectrometer. The peaks observed in the resulting chromatograms were integrated, compared to a standard curve, and cross-checked by mass and retention time (Jones et al 2011 Hypertension. 57: 570-576).

A further series concerns the target T2, human AT2R (Homo sapiens, UniProt P50052).
T2 construct: expressed in transfected cells
T2 sequence (P50052 1-363): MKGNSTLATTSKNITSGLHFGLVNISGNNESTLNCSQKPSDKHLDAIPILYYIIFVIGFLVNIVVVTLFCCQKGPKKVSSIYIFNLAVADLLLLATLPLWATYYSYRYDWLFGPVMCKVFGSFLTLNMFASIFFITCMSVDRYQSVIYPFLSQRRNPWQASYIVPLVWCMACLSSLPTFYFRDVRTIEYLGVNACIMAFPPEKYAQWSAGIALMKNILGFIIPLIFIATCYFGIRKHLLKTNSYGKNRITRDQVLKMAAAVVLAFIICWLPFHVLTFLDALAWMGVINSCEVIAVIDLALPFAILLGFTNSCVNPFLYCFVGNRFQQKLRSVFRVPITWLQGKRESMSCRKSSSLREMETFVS
Briefly: Competition radioligand binding (125I-Sar1-Ile8-AngII) in AT2R-transfected HEK-293 cells. Particulars: read-out: Binding AT2R IC50.

Take “D-Arg-Val-Tyr-Ile-His-β-Pro-Phe [D-Arg β-Pro-Ang III]”: the IC50 on human AT1R was more than 100000 nM; at human AT2R it was 0.324 nM. The “peptide remaining in plasma” value in series [1] (after 24 hour incubation, SHR/rat plasma, listed as D-Arg^2-β-Pro^7-Ang III, 1440 min) was “Approximately 80%”. Further, the “Plasma stability (t1/2)” value in series [1] was 24 h.
As for “Tetrazole-CONH-Arg-Val-Tyr-Ile-His-β-Pro-Trp [Tet-βPro-Trp-8-Ang III]”, the IC50 was more than 50000 nM at human AT1R and 0.18 nM at human AT2R.
With Val-Tyr-Ile-His-β-Pro-Phe [βPro-Ang IV], the IC50 at human AT1R is more than 10000 nM.
Regarding “Tetrazole-CONH- Arg-Val-Tyr-Ile-His- β-Pro-Phe [Tet-βPro-Ang III]”, the figures for the IC50 on human AT1R and on human AT2R were more than 50000 nM and 0.78 nM, respectively.
Regarding “Arg-Val-Tyr-Ile-His-β-Pro-Trp [βPro-Trβ-8-Ang III]”, the IC50 on human AT1R is more than 100000 nM; at human AT2R, 0.236 nM. Moreover, the “Plasma stability (t1/2)” value in series [1] worked out at 2.78 h.
Turning to “Arg-Val-Tyr-Ile-His-β-Pro-Ala [βPro-Ala-8-Ang III]”, the values for the IC50 on human AT1R and at human AT2R were more than 10000 nM and 49.1 nM, respectively.
Consider “Arg-Val-Tyr-Ile-His-β-Pro-Phe [βPro-Ang III]”, for which the IC50 at human AT1R is more than 10000 nM. The “time within which peptide was degraded in plasma” value in series [1] (SHR plasma) is not above 2 h. Further, the “Plasma stability (t1/2)” value in series [1] was found to be 0.767 h.
Regarding “Asp-Arg-Val-Tyr-Ile-His-β-Pro-Phe [βPro-Ang II]”, the IC50 at human AT1R came out at 1000 nM.
On to “D-Arg-Val-Tyr-Ile-His-β-Pro-Trp [D-Arg-βPro-Trp-8-Ang III]”, for which the IC50 at human AT1R is more than 50000 nM; on human AT2R it was 2.82 nM. The “Plasma stability (t1/2)” value in series [1] stood at 30.83 h.
With “Nicotinamido-Arg-Val-Tyr-Ile-His-β-Pro-Trp [Nic-βPro-Trp-8-Ang III]”, the results for the IC50 on human AT1R and at human AT2R were 2940 nM and 0.19 nM, respectively.
As to “Asp-Arg-Val-Tyr-Ile-His-β-Pro-Ala [βPro-Ala-8-Ang II]”, the IC50 on human AT1R is more than 10000 nM.
